Results: IntAct's records for PubMed 26455799

B1: ADP-ribosylation factor-like protein 3 (Mus musculus), Q9WUL7 (parent)
chain: MGLLSILRKLKSAPDQEVRILLLGLDNAGKTTLLKQLASEDISHITPTQGFNIKSVQSQGFKLNVWDIGGQRKIRPYWRSYFENTDILIYVIDSADRKRFEETGQELTELLEEEKLSCVPVLIFANKQDLLTAAPASEIAEGLNLHTIRDRVWQIQSCSALTGEGVQDGMNWVCKNVNAKKK

Variants of: B1
Conditions: with cfa36_mouse Cfap36, Q8C6E0

Effect of a mutation on the interaction, decreasing interaction strength:
MGLDSILRKLKSAPDQEVRILLLGLDNAGKTTLLKQLASEDISHITPTQGFNIKSVQSQGFKLNVWDIGGQRKIRPYWRSYFENTDILIYVIDSADRKRFEETGQELTELLEEEKLSCVPVLIFANKQDLLTAAPASEIAEGLNLHTIRDRVWQIQSCSALTGEGVQDGMNWVCKNVNAKKK [L4D]
MGLLSIDRKLKSAPDQEVRILLLGLDNAGKTTLLKQLASEDISHITPTQGFNIKSVQSQGFKLNVWDIGGQRKIRPYWRSYFENTDILIYVIDSADRKRFEETGQELTELLEEEKLSCVPVLIFANKQDLLTAAPASEIAEGLNLHTIRDRVWQIQSCSALTGEGVQDGMNWVCKNVNAKKK [L7D]
MGLLSILRKDKSAPDQEVRILLLGLDNAGKTTLLKQLASEDISHITPTQGFNIKSVQSQGFKLNVWDIGGQRKIRPYWRSYFENTDILIYVIDSADRKRFEETGQELTELLEEEKLSCVPVLIFANKQDLLTAAPASEIAEGLNLHTIRDRVWQIQSCSALTGEGVQDGMNWVCKNVNAKKK [L10D]
MGLLSILRKLKSAPDQEVRILLLGLDNAGKTTLLKQLASEDISHITPTQGANIKSVQSQGFKLNVWDIGGQRKIRPYWRSYFENTDILIYVIDSADRKRFEETGQELTELLEEEKLSCVPVLIFANKQDLLTAAPASEIAEGLNLHTIRDRVWQIQSCSALTGEGVQDGMNWVCKNVNAKKK [F51A]
MGLLSILRKLKSAPDQEVRILLLGLDNAGKTTLLKQLASEDISHITPTQGFNIKSVQSQGFKLNVWDIGGQRKIRPYWRSAFENTDILIYVIDSADRKRFEETGQELTELLEEEKLSCVPVLIFANKQDLLTAAPASEIAEGLNLHTIRDRVWQIQSCSALTGEGVQDGMNWVCKNVNAKKK [Y81A]
MGDLSILRKLKSAPDQEVRILLLGLDNAGKTTLLKQLASEDISHITPTQGFNIKSVQSQGFKLNVWDIGGQRKIRPYWRSYFENTDILIYVIDSADRKRFEETGQELTELLEEEKLSCVPVLIFANKQDLLTAAPASEIAEGLNLHTIRDRVWQIQSCSALTGEGVQDGMNWVCKNVNAKKK [L3D]
